# CycPeptMPDB entries from one study

Values of Townsend et al. 2020, doi:10.26434/chemrxiv.13335941.v1, as listed in CycPeptMPDB.

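Lipid, pH, incubation time, direction and concentration are not recorded in the data file. Other peptides of the study may be missing here. Entries at the database's floor value (log10 P of -10) are not listed.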

PAMPA measures passive passage through an artificial lipid membrane. Values are log10 P with P in cm/s, so -5 is more permeable than -7.

| PAMPA (log10 cm/s) | compound |
|---|---|
| -5.45 | CC(C)C[C@H]1C(=O)N2CCC[C@H]2C(=O)N(C)[C@@H](CC(C)C)C(=O)N[C@@H](Cc2ccccc2)C(=O)N2CCC[C@H]2C(=O)N(C)[C@H](C)C(=O)N(Cc2ccccc2)CC(=O)N1C |
| -5.69 | CC(C)C[C@@H]1NC(=O)CN(Cc2ccccc2)C(=O)[C@@H](C)N(C)C(=O)[C@H]2CCCN2C(=O)[C@H](Cc2ccccc2)NC(=O)[C@@H](CC(C)C)N(C)C(=O)[C@H]2CCCN2C1=O |
| -5.61 | CC(C)C[C@@H]1NC(=O)[C@@H](C)NC(=O)[C@H]2CCCN2C(=O)[C@H](Cc2ccccc2)NC(=O)[C@H](CC(C)C)N(C)C(=O)[C@@H]2CCCN2C(=O)[C@@H](CC(C)C)N(C)C1=O |
| -6.87 | CC(C)C[C@@H]1NC(=O)[C@H]2CCCN2C(=O)C[C@H](Cc2ccccc2)NC(=O)[C@@H](CC(C)C)NC(=O)[C@@H](C)NC(=O)[C@H]2CCCN2C(=O)[C@H](Cc2ccccc2)NC1=O |
| -5.40 | CC(C)C[C@@H]1NC(=O)C[C@H](Cc2ccccc2)NC(=O)[C@H]2CCCN2C(=O)[C@H](Cc2ccccc2)NC(=O)[C@H](CC(C)C)N(C)C(=O)[C@H]2CCCN2C(=O)[C@H](CC(C)C)N(C)C1=O |
| -6.90 | CC(C)C[C@H]1NC(=O)[C@@H](C)N(C)C(=O)[C@@H]2CCCN2C(=O)[C@H](Cc2ccccc2)NC(=O)CN(Cc2ccccc2)C(=O)[C@@H]2CCCN2C(=O)CN(Cc2ccccc2)C1=O |
| -5.57 | CC(C)C[C@@H]1NC(=O)[C@H]2CCCN2C(=O)[C@@H](CC(C)C)NC(=O)[C@@H](CC(C)C)N(C)C(=O)C[C@H](Cc2ccccc2)NC(=O)[C@@H]2CCCN2C(=O)[C@H](Cc2ccccc2)NC1=O |
| -4.96 | CCCN1CC(=O)N(C)[C@H](CC(C)C)C(=O)N(C)[C@@H](CC(C)C)C(=O)N2CCC[C@H]2C(=O)N(C)[C@@H](CC(C)C)C(=O)N[C@@H](Cc2ccccc2)C(=O)N2CCC[C@@H]2C1=O |
| -6.67 | CC(C)C[C@@H]1NC(=O)[C@H]2CCCN2C(=O)[C@@H](CC(C)C)N(C)C(=O)[C@H](CC(C)C)N(C)C(=O)[C@@H](C)N(C)C(=O)[C@@H]2CCCN2C(=O)[C@H](Cc2ccccc2)NC1=O |
| -5.45 | CC(C)C[C@@H]1C(=O)N[C@H](CC(C)C)C(=O)N2CCC[C@H]2C(=O)N(Cc2ccccc2)CC(=O)N[C@@H](Cc2ccccc2)C(=O)N2CCC[C@H]2C(=O)N(C)[C@H](C)C(=O)N1C |
| -5.60 | CC(C)C[C@H]1NC(=O)[C@H](CC(C)C)N(C)C(=O)[C@H](C)NC(=O)[C@H]2CCCN2C(=O)[C@H](Cc2ccccc2)NC(=O)CN(Cc2ccccc2)C(=O)[C@@H]2CCCN2C1=O |
| -6.40 | CC(C)C[C@@H]1NC(=O)[C@H](C)NC(=O)[C@@H]2CCCN2C(=O)[C@H](Cc2ccccc2)NC(=O)[C@@H](CC(C)C)NC(=O)[C@@H]2CCCN2C(=O)CN(Cc2ccccc2)C1=O |
| -6.03 | CC(C)C[C@@H]1C(=O)N[C@@H](Cc2ccccc2)C(=O)N2CCC[C@@H]2C(=O)N[C@@H](C)C(=O)N(C)[C@@H](CC(C)C)C(=O)N(Cc2ccccc2)CC(=O)N2CCC[C@H]2C(=O)N1C |
| -5.98 | CC(C)C[C@H]1NC(=O)[C@@H]2CCCN2C(=O)CN(Cc2ccccc2)C(=O)[C@H](CC(C)C)N(C)C(=O)[C@H](C)NC(=O)[C@@H]2CCCN2C(=O)[C@H](Cc2ccccc2)NC1=O |
| -5.04 | CC(C)C[C@H]1C(=O)N[C@@H](Cc2ccccc2)CC(=O)N2CCC[C@H]2C(=O)N(C)[C@@H](CC(C)C)C(=O)N[C@@H](Cc2ccccc2)C(=O)N2CCC[C@@H]2C(=O)N[C@H](C)C(=O)N1C |
| -5.41 | CC(C)C[C@@H]1NC(=O)[C@@H]2CCCN2C(=O)[C@@H](CC(C)C)N(C)C(=O)[C@@H](CC(C)C)N(C)C(=O)[C@H](C)NC(=O)[C@H](Cc2ccccc2)NC1=O |
| -5.78 | CC(C)C[C@@H]1NC(=O)[C@H](C)N(C)C(=O)[C@H]2CCCN2C(=O)[C@H](Cc2ccccc2)NC(=O)[C@@H](CC(C)C)NC(=O)[C@H]2CCCN2C(=O)[C@H](CC(C)C)N(C)C1=O |
| -4.99 | CCCN1CC(=O)N[C@@H](CC(C)C)C(=O)N[C@@H](CC(C)C)C(=O)N2CCC[C@H]2C(=O)N(C)[C@H](CC(C)C)C(=O)N[C@@H](Cc2ccccc2)C1=O |
| -6.07 | CC(C)C[C@@H]1NC(=O)[C@@H](C)NC(=O)[C@@H]2CCCN2C(=O)[C@H](Cc2ccccc2)NC(=O)CN(Cc2ccccc2)C(=O)[C@@H]2CCCN2C(=O)[C@@H](CC(C)C)N(C)C1=O |
| -4.82 | CCCN1CC(=O)N(C)[C@@H](CC(C)C)C(=O)N[C@H](CC(C)C)C(=O)N2CCC[C@H]2C(=O)N(C)[C@H](CC(C)C)C(=O)N[C@@H](Cc2ccccc2)C1=O |
| -5.84 | CC(C)C[C@@H]1C(=O)N[C@@H](Cc2ccccc2)C(=O)N[C@@H](C)C(=O)N(C)[C@@H](CC(C)C)C(=O)N(C)[C@H](CC(C)C)C(=O)N2CCC[C@@H]2C(=O)N1C |
| -5.33 | CC(C)C[C@@H]1NC(=O)[C@H]2CCCN2C(=O)[C@H](CC(C)C)NC(=O)[C@@H](CC(C)C)NC(=O)C[C@H](Cc2ccccc2)NC(=O)[C@@H]2CCCN2C(=O)[C@H](Cc2ccccc2)NC1=O |
| -5.25 | CC(C)C[C@@H]1C(=O)N(Cc2ccccc2)CC(=O)N2CCC[C@@H]2C(=O)N(C)[C@@H](CC(C)C)C(=O)N[C@@H](Cc2ccccc2)C(=O)N2CCC[C@H]2C(=O)N(C)[C@H](C)C(=O)N1C |
| -5.25 | CC(C)C[C@@H]1NC(=O)C[C@H](Cc2ccccc2)NC(=O)[C@H]2CCCN2C(=O)[C@H](Cc2ccccc2)NC(=O)[C@H](CC(C)C)N(C)C(=O)[C@@H]2CCCN2C(=O)[C@H](CC(C)C)N(C)C1=O |

Again, the 2 entries with the lowest PAMPA:

| compound | PAMPA (log10 cm/s) |
|---|---|
| CC(C)C[C@H]1NC(=O)[C@@H](C)N(C)C(=O)[C@@H]2CCCN2C(=O)[C@H](Cc2ccccc2)NC(=O)CN(Cc2ccccc2)C(=O)[C@@H]2CCCN2C(=O)CN(Cc2ccccc2)C1=O | -6.90 |
| CC(C)C[C@@H]1NC(=O)[C@H]2CCCN2C(=O)C[C@H](Cc2ccccc2)NC(=O)[C@@H](CC(C)C)NC(=O)[C@@H](C)NC(=O)[C@H]2CCCN2C(=O)[C@H](Cc2ccccc2)NC1=O | -6.87 |